From patent publication US9873680B2 (Gilead Sciences, Inc., priority 2014, dated 2018) come the findings set out here.

A short description of this series: Test B: Cytotoxicity Assay. The format is cell-based. The note with it: human, uninfected MT-4 cells, CellTiter-Glo. The protocol:
Test B: Cytotoxicity Assay Compound cytotoxicity and the corresponding CC50 values was determined using the same protocol as described in the antiviral assay (Test A) except that uninfected cells were used.
(Cellular ATP, detected with luciferase, serves as a proxy for viable cell number.)

Regarding `Cn1nc(NS(C)(=O)=O)c2c(Cl)ccc(-c3ccc(C#CC4(O)CC(F)(F)C4)nc3[C@H](Cc3cc(F)cc(F)c3)NC(=O)Cn3nc(C(F)F)c4c3C(F)(F)[C@@H]3C[C@H]43)c21` [Compound 95E, N—((S)-1-(3-(4-chloro-1-methyl-3-(methylsulfonamido)-1H-indazol-7-yl)-6-((3,3-difluoro-1-hydroxycyclobutyl)ethynyl)pyridin-2-yl)-2-(3,5-difluorophenyl)ethyl)-2-((3bS,4aR)-3-(difluoromethyl)-5,5-difluoro-3b,4,4a,5-tetrahydro-1H-cyclopropa[3,4]cyclopenta[1,2-c]pyrazol-1-yl)acetamide], the CC50 at 5 days is 8.75 µM. This counts as single-digit micromolar.

One may read the CC50 as the concentration that lowers cell viability or growth by half. High values mean better tolerance by the cells, low ones harm at low concentration.
